In PubChem BioAssay AID540329 (Sanford-Burnham Center for Chemical Genomics, 2011):
Only a part is listed here, and it is no random draw. Activity calls are given as the source filed them.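 The calls were made as follows: active = substances whose mean melting-temperature shift, as a percentage of the reference inhibitor's shift, reaches about 5.3% (limit read from the data); inactive = the rest.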

Amino acid sequences for entries named in this document (tags omitted). A change or cut given only in a name is not applied to a line headed by its entry.
UniProt Q9GZU7: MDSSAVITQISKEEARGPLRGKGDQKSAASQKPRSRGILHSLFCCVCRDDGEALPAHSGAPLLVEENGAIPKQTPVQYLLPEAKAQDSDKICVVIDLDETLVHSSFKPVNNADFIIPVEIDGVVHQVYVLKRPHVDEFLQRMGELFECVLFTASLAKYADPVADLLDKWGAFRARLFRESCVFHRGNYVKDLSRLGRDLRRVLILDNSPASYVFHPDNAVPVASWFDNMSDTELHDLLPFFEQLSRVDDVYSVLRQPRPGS

Each compound was assayed against Carboxy-terminal domain RNA polymerase II polypeptide A small phosphatase 1 (Homo sapiens) (UniProt Q9GZU7) (assay: Scp-1 binding by thermal shift, confirmation, orthogonal assay for Scp-1 inhibitor project, biophysical, differential scanning fluorimetry (AID 540329;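 also: 0% = Tm of DMSO wells and 100% = Tm with sodium orthovanadate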)). Details: Recombinant SCP1, Sypro Orange thermal shift Tm; at 40 µM; active compounds read high.
Procedure, shortened: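 Assay system: human Scp-1 phosphatase catalytic domain, residues 76-261; input: 10 µM Scp-1 stock; medium: Tris acetate pH 5.5 buffer; dosing: one dose per compound, 10 mM stock; schedule: 20-95 °C thermal ramp; measured by: protein melting followed by Sypro Orange dye fluorescence; read-out basis: melting temperature shift relative to vanadate; control set: vanadate reference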

SMILES	thermal shift relative to vanadate control
Nc1cccc2ccc([As](=O)(O)O)cc12	inactive: 3.81%
